The results in this text go back to ChEMBL document CHEMBL4387707, “Structure-Activity Relationships for Itraconazole-Based Triazolone Analogues as Hedgehog Pathway Inhibitors” (J Med Chem, 2019).

Protein sequences, listed by entry. Tags and fused reporters are not part of them.
UniProt P56726, whole entry: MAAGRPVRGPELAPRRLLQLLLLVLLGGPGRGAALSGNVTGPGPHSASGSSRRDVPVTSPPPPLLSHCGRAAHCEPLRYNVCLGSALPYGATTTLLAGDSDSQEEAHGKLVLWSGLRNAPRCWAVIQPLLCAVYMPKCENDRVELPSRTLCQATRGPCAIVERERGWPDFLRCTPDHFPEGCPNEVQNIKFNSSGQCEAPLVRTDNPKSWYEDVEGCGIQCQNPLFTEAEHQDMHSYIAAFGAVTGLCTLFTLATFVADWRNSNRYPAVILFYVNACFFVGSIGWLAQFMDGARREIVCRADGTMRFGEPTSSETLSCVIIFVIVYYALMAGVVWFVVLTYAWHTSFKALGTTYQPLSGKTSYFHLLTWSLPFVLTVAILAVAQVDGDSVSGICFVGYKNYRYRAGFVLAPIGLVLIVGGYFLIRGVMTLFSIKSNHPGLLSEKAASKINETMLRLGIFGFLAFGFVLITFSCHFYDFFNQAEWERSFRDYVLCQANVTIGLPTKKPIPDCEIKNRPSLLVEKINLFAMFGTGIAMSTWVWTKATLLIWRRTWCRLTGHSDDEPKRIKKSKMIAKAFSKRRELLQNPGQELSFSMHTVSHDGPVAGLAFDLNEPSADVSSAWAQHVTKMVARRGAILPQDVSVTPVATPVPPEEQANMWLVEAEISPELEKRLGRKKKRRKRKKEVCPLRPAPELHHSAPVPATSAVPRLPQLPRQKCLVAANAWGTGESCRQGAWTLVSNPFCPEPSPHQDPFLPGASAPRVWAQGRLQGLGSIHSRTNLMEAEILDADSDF

The test addresses Protein smoothened (Mus musculus, UniProt P56726). The experiment in a line: Inhibition of smo-mediated hedgehog signaling pathway in mouse ASZ001 cells assessed as decrease in Gli1 mRNA expression after 48 hrs by qPCR method. Type of test: cell-based. Summed up: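 Gli1 mRNA measured by qPCR after 48 h incubation with compound, normalized to actin as internal control. Concentrations judged cytotoxic (by visual assessment and/or a significant drop in actin expression) were excluded from analysis. IC50 given as mean ± SEM of at least two separate experiments, each in triplicate.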
(In qPCR the cycle at which signal appears reflects the starting amount.)

pIC50: −log10 of the molar value. A value given as a limit tells only on which side of the number the result lay.

A word on the pIC50: it is the negative decadic logarithm of the IC50, by convention in mol/L. Turning to `C[C@]1(c2ccc(Cl)cc2Cl)OC[C@@H](COc2ccc(N3CCN(c4ccc(NC(=O)Oc5ccccc5)cc4)CC3)cc2)O1`, the pIC50 is below 5.00. As for `C[C@@]1(c2ccc(Cl)cc2Cl)OC[C@@H](COc2ccc(N3CCN(c4ccc(NC(=O)Oc5ccccc5)cc4)CC3)cc2)O1`, the figure is below 5.00.
